# Structures can show the parent of a compound that is named as a salt.
# Columns and labels:
# [1] = tested on: hepatic cirrhosis induced by N-nitrosodiethylamine; assay: Effect on hepatic cirrhosis (2), hepatocirrhosis induced by N-nitrosodiethylamine; assay type: in vivo, Sprague-Dawley rats
# [2] = tested on: liver regeneration after partial hepatectomy; assay: Liver regeneration after 70% partial hepatectomy, BrdU labeling index; assay type: in vivo, Sprague-Dawley rats; details: 70% hepatectomy; crude extract 1 ml/rat or EA-HCl 10 mg/rat
SMILES,prevention of hepatic cirrhosis induced by N-nitrosodiethylamine ([1]; oral administration),"formation of nodules, difference from N-nitrosodiethylamine group (Dunnet's test) ([1]; oral, 15 mg/kg)","amount of hydroxyproline, difference from N-nitrosodiethylamine group (t-test) ([1]; oral, 50 mg/kg)","formation of nodules, difference from N-nitrosodiethylamine group (Dunnet's test) ([1]; oral, 50 mg/kg)","amount of hydroxyproline in liver, dose dependence ([1]; oral, 15 and 50 mg/kg)","formation of nodules on liver surface, dose dependence ([1]; oral, 15 and 50 mg/kg)",significance (Student's t-test) of BrdU labeling index [2]
"NCCO [ethanolamine, monoethanolamine]",can be prevented,statistically significant,statistically significant,statistically significant,"the higher the dose of ethanolamine, the lower the amount of hydroxyproline","the higher the dose of ethanolamine, the less significant the formation of nodules",–
"NCCO [EA-HC1, monoethanolamine-HCl]",–,–,–,–,–,–,** (P < 0.01 (Student's ttest))

# From patent US5916924A, “Remedies for liver diseases” (Meiji Milk Products Co., Ltd., priority 1997, dated 1999)
